Experiments:
HT-29 cells [1] = settings: 10 days
H3122 cells = settings: 3 days
pMEK and pERK = settings: for inhibition of MEK and ERK phosphorylation compared with degraders 24, 27 and 50: HT-29 and SK-MEL-28 cells, 24 h
HT-29 cells [2] = experiment: Antiproliferation; settings: Homo sapiens, HT-29, 72 h, read-out: HT-29 GI50, HT-29 cells, 3 days, mean ± SD

Cc1ncsc1-c1ccc([C@H](C)NC(=O)[C@@H]2C[C@@H](O)CN2C(=O)[C@@H](NC(=O)CCCCCCCCCCN(C)CCCONC(=O)c2ccc(F)c(F)c2Nc2ccc(I)cc2F)C(C)(C)C)cc1 [Compound 24, (2S,4R)-1-((S)-20-(tert-Butyl)-1-(3,4-difluoro-2-((2-fluoro-4-iodophenyl)amino)phenyl)-7-methyl-1,18-dioxo-3-oxa-2,7,19-triazahenicosan-21-oyl)-4-hydroxy-N-((S)-1-(4-(4-methylthiazol-5-yl)phenyl)ethyl)pyrrolidine-2-carboxamide]
inhibition of colony formation vs corresponding controls (HT-29 cells [1]): much more effectively than the corresponding controls | growth inhibition potency compared with compound 4 (H3122 cells): better potency

Cc1ncsc1-c1ccc([C@H](C)NC(=O)[C@@H]2C[C@@H](O)CN2C(=O)[C@@H](NC(=O)CCCCCCCCCCCNCCCCONC(=O)c2ccc(F)c(F)c2Nc2ccc(I)cc2F)C(C)(C)C)cc1 [Compound 27, (2S,4R)-1-((S)-22-(tert-Butyl)-1-(3,4-difluoro-2-((2-fluoro-4-iodophenyl)amino)phenyl)-1,20-dioxo-3-oxa-2,8,21-triazatricosan-23-oyl)-4-hydroxy-N-((S)-1-(4-(4-methylthiazol-5-yl)phenyl)ethyl)pyrrolidine-2-carboxamide]
inhibition of colony formation vs corresponding controls (HT-29 cells [1]): much more effectively than the corresponding controls | growth inhibition potency compared with compound 4 (H3122 cells): better potency

O=C1CCC(N2C(=O)c3ccc(NCCOCCOCCOCCOCCOCCNCCCONC(=O)c4ccc(F)c(F)c4Nc4ccc(I)cc4F)cc3C2=O)C(=O)N1 (stereo not shown) [Compound 50, N-((1-((2-(2,6-Dioxopiperidin-3-yl)-1,3-dioxoisoindolin-5-yl)amino)-3,6,9,12,15-pentaoxa-18-azahenicosan-21-yl)oxy)-3,4-di-fluoro-2-((2-fluoro-4-iodophenyl)amino)benzamide]
time of ERK phosphorylation inhibition (pMEK and pERK; HT-29 cells, 0.3 μM): 8 to 10 h | inhibition of colony formation vs corresponding controls (HT-29 cells [1]): much more effectively than the corresponding controls

Cc1ncsc1-c1ccc([C@H](C)NC(=O)[C@H]2C[C@H](O)CN2C(=O)[C@@H](NC(=O)CCCCCCCCCCN(C)CCCONC(=O)c2ccc(F)c(F)c2Nc2ccc(I)cc2F)C(C)(C)C)cc1 [Compound 51, (2R,4S)-1-((S)-20-(tert-Butyl)-1-(3,4-difluoro-2-((2-fluoro-4-iodophenyl)amino)phenyl)-7-methyl-1,18-dioxo-3-oxa-2,7,19-triazahenicosan-21-oyl)-4-hydroxy-N-((S)-1-(4-(4-methylthiazol-5-yl)phenyl)ethyl)pyrrolidine-2-carboxamide]
inhibition of MEK and ERK phosphorylation compared with degraders 24, 27 and 50 (pMEK and pERK): much less potent

Cc1ncsc1-c1ccc([C@H](C)NC(=O)[C@H]2C[C@H](O)CN2C(=O)[C@@H](NC(=O)CCCCCCCCCCCNCCCCONC(=O)c2ccc(F)c(F)c2Nc2ccc(I)cc2F)C(C)(C)C)cc1 [Compound 52, (2R,4S)-1-((S)-22-(tert-Butyl)-1-(3,4-difluoro-2-((2-fluoro-4-iodophenyl)amino)phenyl)-1,20-dioxo-3-oxa-2,8,21-triazatricosan-23-oyl)-4-hydroxy-N-((S)-1-(4-(4-methylthiazol-5-yl)phenyl)ethyl)pyrrolidine-2-carboxamide]
inhibition of MEK and ERK phosphorylation compared with degraders 24, 27 and 50 (pMEK and pERK): much less potent

CN1C(=O)CCC(N2C(=O)c3ccc(NCCOCCOCCOCCOCCOCCNCCCONC(=O)c4ccc(F)c(F)c4Nc4ccc(I)cc4F)cc3C2=O)C1=O (stereo not shown) [Compound 53, 3,4-Difluoro-2-((2-fluoro-4-iodophenyl)amino)-N-((1-((2-(1-methyl-2,6-dioxopiperidin-3-yl)-1,3-dioxoisoindolin-5-yl)amino)-3,6,9,12,15-pentaoxa-18-azahenicosan-21-yl)oxy)benzamide]
GI50 (HT-29 cells [2]): 2600 ± 79 nM | inhibition of MEK and ERK phosphorylation compared with degraders 24, 27 and 50 (pMEK and pERK): much less potent

From article PMC7770057 (Journal of medicinal chemistry, 2020)
